Source: PubChem BioAssay AID720709 (National Center for Advancing Translational Sciences (NCATS), 2013)
The list shows a part of the results, in another mix than the full data. Inconclusive results are not listed. Active and inactive are the calls of the source. Calls come from the whole dose curve; as a rule, active = well fitted inhibition curve with a large enough effect; inconclusive = small, poorly fitted or top-dose-only effect; inactive = no such curve, though single readings can be large or run the other way.

Sequences of proteins named here, by UniProt entry; tags and fusion partners are left off. A change or cut given only in a name is not applied to a line headed by its entry.
UniProt O95398: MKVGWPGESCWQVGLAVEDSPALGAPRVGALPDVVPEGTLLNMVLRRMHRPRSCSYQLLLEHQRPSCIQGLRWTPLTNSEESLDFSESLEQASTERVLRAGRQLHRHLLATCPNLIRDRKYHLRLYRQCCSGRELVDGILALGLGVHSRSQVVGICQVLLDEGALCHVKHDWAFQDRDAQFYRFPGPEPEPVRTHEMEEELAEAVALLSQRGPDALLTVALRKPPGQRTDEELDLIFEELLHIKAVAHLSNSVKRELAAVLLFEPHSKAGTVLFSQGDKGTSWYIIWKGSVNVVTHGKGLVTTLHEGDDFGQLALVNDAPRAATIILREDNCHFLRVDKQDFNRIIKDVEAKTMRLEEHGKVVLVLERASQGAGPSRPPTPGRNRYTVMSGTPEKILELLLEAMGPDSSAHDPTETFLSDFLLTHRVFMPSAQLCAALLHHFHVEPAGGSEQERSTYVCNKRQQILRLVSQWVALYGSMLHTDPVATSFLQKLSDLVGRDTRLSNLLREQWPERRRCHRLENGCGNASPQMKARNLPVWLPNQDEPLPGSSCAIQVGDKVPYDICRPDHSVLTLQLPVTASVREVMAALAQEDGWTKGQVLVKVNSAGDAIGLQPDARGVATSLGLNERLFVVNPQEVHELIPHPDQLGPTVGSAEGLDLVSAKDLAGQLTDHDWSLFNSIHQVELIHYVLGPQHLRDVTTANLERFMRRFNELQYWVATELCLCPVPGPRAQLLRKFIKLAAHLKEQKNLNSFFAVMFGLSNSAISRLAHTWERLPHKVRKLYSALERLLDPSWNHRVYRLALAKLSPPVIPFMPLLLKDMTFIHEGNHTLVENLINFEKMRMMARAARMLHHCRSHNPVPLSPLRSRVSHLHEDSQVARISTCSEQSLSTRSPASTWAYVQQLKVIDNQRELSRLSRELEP

Target: Rap guanine nucleotide exchange factor 3 (Homo sapiens) (UniProt O95398)
Assay: qHTS for Antagonist of cAMP-regulated guanine nucleotide exchange factor 3 (EPAC1): primary screen; note: nearly all actives have a fitted effect of over 50% in size
Details: EPAC1 GEF assay, Rap1b-BODIPY-GDP exchange fluorescence; at 115 µM (top of the series)
Excerpt: In multi-cellular eukaryotic organisms, the effects of cAMP are transduced by two ubiquitously-expressed intracellular cAMP receptors, the classic protein kinase A/cAMP-dependent protein kinase (PKA/cAPK) and the more recently discovered exchange protein directly activated by cAMP/cAMP-regulated guanine nucleotide exchange factor (EPAC/cAMP-GEF). Both PKA and EPAC are ubiquitously expressed in all tissues, and an increase in intracellular cAMP levels will lead to the activation of both PKA and EPAC. Therefore, careful dissections of the individual role and relative contribution of EPAC and PKA within the overall cAMP signaling in various model systems are critical for further elucidating the mechanism of cAMP signaling. To date no EPAC-specific antagonists and agonist, as well as isoform-specific agonists have been reported, and developing EPAC-specific pharmacological probes to determine the physiological functions that EPAC play in the overall cAMP-mediated signaling remains a major challenge within the research field. Furthermore, identified regulators of EPAC may lead to new mechanism-based therapeutic strategies specifically targeting the EPAC / cAMP-signaling components as EPAC has been implicated to play important roles in major human pathological conditions such as diabetes, heart disease, and cancer. This qHTS will be used to screen the Molecular Libraries Small Molecule Repository (MLSMR) as a concentration-titration series using the NCGC unique quantitative screening (qHTS) platform to find inhibitors for EPAC1. In addition, this assay will also be used as a counterscreen for the EPAC2 qHTS. This fluorescent based assay is developed and validated for EPAC1 that measures exchange using EPAC effector Rap1 complex with BODIPY-GDP, a GDP analog with a tethered fluorophores. Inhibitors are identified by monitoring the change in fluorescence signal as the exchanged free BODIPY-GDP has a reduced fluorescence compared to Rap1-bound BODIPY-GDP. Decrease in signal (inhibition) is the desired outcome for the EPAC1 antagonist while no activity in this assay is desired for the EPAC2 antagonist counterscreen. de Rooij, J., Zwartkruis, F. J., Verheijen, M. H., Cool, R. H., Nijman, S. M., Wittinghofer, A., and Bos, J.L. (1998) Nature 396, 474-477 [2] Kawasaki, H., Springett, G. M., Mochizuki, N., Toki, S., Nakaya, M., Matsuda, M., Housman, D. E., and Graybiel, A. M. (1998) Science 282, 2275-2279 NIH Chemical Genomics Center [NCGC] NIH Molecular Libraries Probe Centers Network [MLPCN] MLPCN Grant: NS066510 Assay Submitter (PI): Xiaodong Cheng, The University of Texas, Medical Branch
Briefly, three uL of reagents (100 nM EPAC1, 250 nM RAP1B-BODIPY-GDP, 50 uM GDP) were dispensed into a 1536-well Greiner black solid-bottom medium binding assay plate. Controls and test compounds (23 nL) were transferred to the plate via a Kalypsys pin tool equipped with a 1536-pin array. The plates were centrifuged at 1,000 rpm for 15 seconds followed by 5 minute incubation at room temperature. The assay plates were read at 5 minute intervals for 30 minutes in the ViewLux plate reader using 480nm excitation and 540nm emission filters. The results were normalized to the […] positive control ATA and DMSO.

Row | Compound | activity change, negative = inhibition
1 | ClCCSc1nnc(-c2cccnc2)o1 | inactive: 9.34%
2 | CC(C)c1ccc(OP(=O)(Nc2ccccn2)Oc2ccccc2F)cc1 (stereo not given) | inactive: -5.48%
3 | COC(=O)C1(C)COP(=O)(N2CCCCCC2)OC1 (stereo not given) | inactive: 0.656%
4 | O=C(OC1CN2CCC1CC2)c1cccc2[nH]cnc12 (stereo not given) | inactive: -4.8%
5 | CCN(CC)C(=S)SC(NC=O)C(Cl)(Cl)Cl (stereo not given) | inactive: 7.37%
6 | CC(C)NC(=O)NP(=O)(Oc1ccccc1)Oc1ccccc1 | inactive: -11.1%
7 | O=[N+]([O-])c1cc([N+](=O)[O-])c(-c2ccn[nH]2)s1 | inactive: -0.242%
8 | C[As](=O)(O)c1cccc(C(=O)O)c1 | inactive: -5.64%
9 | O=[As](O)(c1ccc(O)cc1)c1ccccc1O | inactive: 9.84%
10 | COc1cc(C(=O)NCC2(N3CCOCC3)CCCCC2)ccc1OCC(C)C | inactive: -5.84%
11 | Cc1ccc(OP(=O)(Nc2ccc([N+](=O)[O-])cn2)Oc2ccc(C)cc2)cc1 | inactive: -28.6%
12 | [N-]=[N+]=NC1CCCCC1NC(=O)c1cc([N+](=O)[O-])cc([N+](=O)[O-])c1 (stereo not given) | inactive: 2.22%
13 | Cc1ccc2nc3c(c(C)c2c1)CC(C(Cl)Cl)S3 (stereo not given) | inactive: -13.8%
14 | O=[N+]([O-])c1cc(Oc2ccc([N+](=O)[O-])cc2C(F)(F)F)cc([N+](=O)[O-])c1 | inactive: -3.87%
15 | COc1ccc(N/C(=N/P(=O)(N2CCOCC2)N2CCOCC2)N2CCOCC2)cc1 | inactive: -4.93%
16 | Cc1c2c(nc3ccccc13)SC(C(Cl)Cl)C2 (stereo not given) | inactive: -21.1%
17 | O=C(OC1CN2CCC1CC2)C12CC3CC(CC(C3)C1)C2 (stereo not given) | inactive: -4.02%
18 | Cc1cc(=O)[nH]c(N[N+](=O)[O-])n1 | inactive: -17.3%
19 | O=P1(N(CCCl)CCCl)OCCCN1CCCl (stereo not given) | inactive: -17.5%
20 | O=P1(N(CCCl)CCCl)Nc2ccccc2N1 | inactive: 0.256%
21 | COc1ccc2nc(NP(=O)(c3ccccc3)c3ccccc3)sc2c1 | inactive: 2.98%
22 | COc1cc(I)ccc1[As](=O)(O)O | inactive: -8.78%

Row | Compound | activity change, negative = inhibition
23 | O=C(OC1CN2CCC1CC2)c1cccc([N+](=O)[O-])c1 (stereo not given) | inactive: -13.4%
24 | CSc1ccc(Nc2c([N+](=O)[O-])cc([N+](=O)[O-])cc2[N+](=O)[O-])cc1 | inactive: 0.477%
25 | CCOC(=O)c1ccc(NC(=O)C(C)(CCl)SC)cc1 (stereo not given) | inactive: -17.6%
26 | CCC(C)N(CC(C)C)C(=S)SC(NC(C)=O)C(Cl)(Cl)Cl (stereo not given) | inactive: 3.42%
27 | COP1(=S)c2c(C)nn(CCC#N)c2N=C(c2ccc(F)cc2)N1C (stereo not given) | inactive: -0.846%
28 | O=C(O)C(=O)c1ccc(N(CCCl)CCCl)cc1 | inactive: 11.5%
29 | O=C(COc1ccccc1)OC1CN2CCC1CC2 (stereo not given) | inactive: 15.9%
30 | O=C(Nc1ccncc1[N+](=O)[O-])c1ccc([N+](=O)[O-])cc1[N+](=O)[O-] | inactive: -20.1%
31 | CCOC(=O)Nc1cccc([As](=O)(O)O)c1 | inactive: -20.3%
32 | Cc1cc(SC(NC=O)C(Cl)(Cl)Cl)ncn1 (stereo not given) | inactive: 5.36%
33 | O=P(Nc1ccccn1)(c1cccc2ccccc12)c1cccc2ccccc12 | inactive: -11.7%
34 | O=[N+]([O-])c1ccc(Nc2ccc(Oc3ccc([N+](=O)[O-])cc3[N+](=O)[O-])cc2)c([N+](=O)[O-])c1 | inactive: 5.04%
35 | O=C(O)C(O)c1ccc(N(CCCl)CCCl)cc1 (stereo not given) | inactive: 3.7%
36 | CCOC(=O)Nc1ccc([As](=O)(O)O)c(O)c1 | inactive: -7.83%
37 | CC1CCNP(=O)(N(CCCl)CCCl)O1 (stereo not given) | inactive: -1.53%
38 | COP(=O)(OC)N1CC1c1ccccc1 (stereo not given) | inactive: 6.86%
39 | CCCCOc1ccc(C(=O)NCC2(N3CCCCC3)CCCCC2)cc1OC | inactive: 15.6%
40 | Cc1cc(SC(NC(=O)c2ccccc2)C(Cl)(Cl)Cl)nc(C(C)C)n1 (stereo not given) | inactive: -14.3%
41 | Cc1ccc(S(=O)(=O)N(CCCN)CCCc2c(C)nc(N)[nH]c2=O)cc1 | inactive: -19.1%
42 | O=P1(Nc2ncccn2)COc2ccccc2OC1 | inactive: 7.07%
43 | Nc1cccc([As](=O)(O)c2ccccc2)c1 | inactive: 1.47%
44 | NS(=O)(=O)c1cccc(NC(=O)COC(=O)C(O)(c2ccccc2)c2ccccc2)c1 | inactive: -20.5%

Row | Compound | activity change, negative = inhibition
45 | O=P1(Nc2ccc(Br)cn2)COc2ccccc2OC1 | inactive: -3.64%
46 | O=[As](O)(c1cccs1)c1cccs1 | inactive: -9.65%
47 | Cc1ccc(OCC(=O)OC2CN3CCC2CC3)cc1 (stereo not given) | inactive: 4.06%
48 | Cc1nn(-c2ccccc2)c2c1P(=O)(N1CCOCC1)N(C)C(c1ccccc1)=N2 (stereo not given) | inactive: 8.27%
49 | Cc1ccc(C(=O)OC2CN3CCC2CC3)cc1 (stereo not given) | inactive: 2.58%
50 | CN(C)C1(CNC(=O)c2ccc(S(C)(=O)=O)cc2)CCCCC1 | inactive: -4.61%
51 | O=C(/C=C/c1ccccc1)OC1CN2CCC1CC2 (stereo not given) | inactive: -1.07%
52 | CCCC1OP(=O)(Nc2ccccc2)OCC1CC (stereo not given) | inactive: -1.58%
53 | COc1ccccc1CNC(=O)COC(=O)C(O)(c1ccccc1)c1ccccc1 | inactive: -15.2%
54 | CC(C)/C=N\N=C(\N)N[N+](=O)[O-] | inactive: -0.404%
55 | CC1(CBr)Cn2c(nc3ccccc3c2=O)S1 (stereo not given) | inactive: 5.59%
56 | O=P1(Nc2ccccn2)COc2ccccc2OC1 | inactive: -15.5%
57 | CCOP(=O)(NC(=NC(C)c1ccccc1)NC(C)c1ccccc1)OCC (stereo not given) | inactive: -24.1%
58 | CN(CCCl)Cc1cc(Cl)c(NC2=NCCN2)c(Cl)c1 | inactive: -8.78%
59 | CCOP(=O)(Nc1ccc(C)cn1)OCC | inactive: 0.0787%
60 | Clc1n[nH]nc1-c1nn[nH][15n]1 | inactive: -9.46%
61 | O=P1(N(CCCl)CCCl)NCCC(C(F)(F)F)O1 (stereo not given) | inactive: 7.68%
62 | CC(C)(C)C(=O)NC(Sc1ncccn1)C(Cl)(Cl)Cl (stereo not given) | inactive: -2.69%
63 | Nc1cccc2c([As](=O)(O)O)cccc12 | inactive: 1.93%
64 | Cc1ccc(NCCc2c([N+](=O)[O-])cc([N+](=O)[O-])cc2[N+](=O)[O-])cc1 | inactive: -8.94%
65 | CCCOP(=S)(Nc1nc(N)cc(=O)[nH]1)OCCC | inactive: -1.46%
